Only a part is listed here, and it is no random draw. Some tests of the compounds listed are not included; inactive here does not mean inactive elsewhere. Calls of active or inactive are those of the source.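 Rule for the calls: active = at 10 µM dose, activation of 40% or more, normalized to positive control; inactive = the rest.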
Test: activators of apoptotic CHOP UPR arm, primary screen, cell-based, CHO-CHOP luciferase reporter, luminescence, uHTS (AID 449763);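 note: 100% = tunicamycin at 10 µg/mL and 0% = DMSO alone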
Conditions: at 10 µM, stronger effect = higher value, percent of tunicamycin response over DMSO baseline
How it was run: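 measured by = luciferase luminescence | assay system = CHO-CHOP cells, stable luciferase reporter of PERK-eIF2a-CHOP signalling | amount = 500 reporter cells seeded per well | timing = 6 h compound exposure at 37 °C after overnight seeding | controls = positive tunicamycin 10 µg/mL, negative DMSO alone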

| Structure (SMILES) | activation |
| --- | --- |
| Cc1cc(C(=O)NCC2(N3CCCCC3)CCCCC2)ccc1[N+](=O)[O-] | inactive: 1.39% |
| CCN1CCCC(OC(=O)C2(O)c3ccccc3C=Cc3ccccc32)C1 (centres undefined) | inactive: -2.21% |
| O=C(NCC1(N2CCCCC2)CCCCC1)c1cccc(Br)c1 | inactive: -0.346% |
| COc1ccc(C(=O)NCC2(N(C)C)CCCCC2)cc1 | inactive: 0.436% |
| C=CCN1CCN(CCOC(=O)C(O)(c2ccccc2)c2ccccc2)CC1 | inactive: -1.3% |
| O=C(NCC1(N2CCCCC2)CCCCC1)c1cc(F)c(F)cc1Cl | inactive: 0.373% |
| Cc1ccccc1C(=O)NCC1(N2CCCCC2)CCCCC1 | inactive: -1.33% |
| CN(C)C1CCCC1OC(=O)C(O)(c1ccccc1)c1ccccc1 (centres undefined) | inactive: 0.639% |
| CN(C)c1ccc(C(=O)NCC2(N(C)C)CCCCC2)cc1 | inactive: -1.16% |
| Cc1ccc(C(=O)NCC2(N3CCCCC3)CCCCC2)cc1 | inactive: -1.55% |
| CC(C)N1C(=O)CC2(CCN(CCOC(=O)C(O)(c3ccccc3)c3ccccc3)CC2)C1=O | inactive: -3.13% |
| CCN(CC)CC(C)C(C)OC(=O)C(O)(c1ccccc1)c1ccccc1 (centres undefined) | inactive: -0.995% |
| COc1cc(SC)ccc1C(=O)NCC1(N(C)C)CCCCC1 | inactive: -0.257% |
| CN1[C@@H]2CC[C@H]1CC(OC(=O)C(O)(c1ccccc1)c1ccccc1)C2 (some centres undefined) | inactive: -0.843% |
| O=C(NCC1(N2CCCCC2)CCCCC1)c1cc([N+](=O)[O-])ccc1Cl | inactive: -2.09% |
| CN(C)c1cccc(C(=O)NCC2(N(C)C)CCCCC2)c1 | inactive: 0.073% |
| CC(C)Oc1ccc(C(=O)NCC2(N(C)C)CCCCC2)cc1 | inactive: 0.965% |
| COc1ccc(Br)c(C(=O)NCC2(N3CCCCC3)CCCCC2)c1 | inactive: -1.88% |
| O=C(OC1CN2CCC1CC2)C(CO)(c1ccccc1)c1ccccc1 (centres undefined) | inactive: -2.6% |
| O=C(NCC1(N2CCCCC2)CCCCC1)c1cccc(Cl)c1 | inactive: -0.606% |
| COc1cccc(C(=O)NCC2(N3CCCCC3)CCCCC2)c1 | inactive: 1.57% |
| COc1ccc(Cl)cc1C(=O)NCC1(N(C)C)CCCCC1 | inactive: 1.62% |
| COc1cc(C(=O)NCC2(N(C)C)CCCCC2)c([N+](=O)[O-])cc1OC | inactive: 1.51% |
| CN(C)C1(CNC(=O)c2ccc(Br)cc2)CCCCC1 | inactive: -2.49% |
